## scFv variants of Ab-14 (heavy chain) against a SARS-CoV-2 spike peptide

Values reported by Engelhart et al. 2022, doi:10.1038/s41597-022-01779-4 (FLAb copy).

Target: peptide PDVDLGDISGINAS, taken from heptad repeat 2 (HR2) of SARS-CoV-2 spike.

Parent: Ab-14, a human scFv built as VH, the linker GGGGSGGGGSGGGGS, VL. Only the CDRs of the heavy chain vary.
VH: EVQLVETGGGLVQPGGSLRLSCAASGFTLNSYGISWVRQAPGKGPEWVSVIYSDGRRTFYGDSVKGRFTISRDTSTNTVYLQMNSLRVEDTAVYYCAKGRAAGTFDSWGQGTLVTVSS
VL: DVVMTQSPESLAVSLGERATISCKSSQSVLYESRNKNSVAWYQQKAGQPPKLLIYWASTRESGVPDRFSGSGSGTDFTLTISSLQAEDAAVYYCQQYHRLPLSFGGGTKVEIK

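The starting antibody came from a phage panning campaign against this peptide. The library (AAYL49) carries one to three amino acid substitutions per variant, with no insertions or deletions. AlphaSeq pools MATa yeast showing the antibodies with MATalpha yeast showing the peptide. After mating in shaken culture at 30 °C for 16 h, diploids were selected and their barcode pairs sequenced. The ratio of observed to expected reads was calibrated, replicate by replicate, on BCL2-family standards whose Kd was known from biolayer interferometry. There are three technical replicates.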

Variants are written as CDR1, CDR2 and CDR3 of the heavy chain (limits as in the source). Parent: GFTLNSYGIS, VIYSDGRRTFYGDSVK, GRAAGTFDS. Numbers give log10(Kd / nM), so 0 is 1 nM and 3 is 1 µM. Smaller is tighter. The mean shown is taken over the replicates in which the pair was detected. "nd" marks a missing value. The strain was present, yet no cells mated with the target were sequenced in that replicate, which points to weak or no binding. In this assay the parent's reference entry averaged 0.65; its copy inside this library read 4.11 (one replicate of three).

| CDR-H1 | CDR-H2 | CDR-H3 | replicates, log10 nM | mean log10 Kd (nM) | signal with controls |
|---|---|---|---|---|---|
| GFYLNSYGIS | VIYSDGRRTFYGDGVK | GRAAGTFDM | 2.23 / nd / 2.72 | 2.48 | 1 of 9 (3.49) |
| GFTKNSYGPS | VIYSDGRRTFYGDSVK | GRAAGTSDS | 3.26 / nd / nd | 3.26 | 1 of 9 (3.64) |
| GFFLNSYGIS | VIYSDGRRTFYGDSVH | GRAWGTFDS | nd / nd / nd | nd | 0 of 9 |
| GFTPNSYGIS | VIYSDWRRTFYGDSVK | GRAAGTFTS | nd / nd / nd | nd | 3 of 9 (3.54) |
| GFTLNSYGIR | VIYSDGRRWLYGDSVK | GRAAGTFDS | nd / nd / nd | nd | 0 of 9 |
| GFTLESYGIS | KIYSDGRRTFYGISVK | GRAAGTFDS | nd / nd / nd | nd | 4 of 9 (4.36) |
| GFTLVKYGIS | VLYSDGRRTFYGDSVK | GRAAGTFDS | 2.21 / 2.83 / 2.17 | 2.40 | 0 of 9 |
| GFRLNSYGIS | VIYSDGRRTFYGDSVK | GRAKGTFPS | 1.59 / 2.14 / 1.97 | 1.90 | 1 of 9 (3.85) |
| GFTLNSYGIS | VIYSDGRRTFYWDWVK | GRAAGTFDS | nd / nd / nd | nd | 1 of 9 (3.18) |
| GFTLNSYGIS | VIYSIGRRTFYGDDVK | GRAAGTFFS | nd / nd / nd | nd | 2 of 9 (2.98) |
| GFTLNSYGIS | VIYSDGPRTFIGDSDK | GRAAGTFDS | nd / nd / nd | nd | 0 of 9 |
| GFWLNSYGIS | VIYSDGRRDFYGDSVK | GRAAGTFSS | nd / 4.33 / nd | 4.33 | 3 of 9 (4.24) |
| GFTLNSYGIS | VIYGPLRRTFYGDSVK | GRAAGTFDS | nd / nd / nd | nd | 1 of 9 (4.44) |
| GATLNSYGIS | VIYSDGRRTFYGDSVK | GRAAGTFDS | 1.64 / 1.94 / 2.00 | 1.86 | 8 of 9 (4.31) |
| GYTLNSYGIS | VWYSDGRRTFYGDSVK | GRAAGTFDS | nd / nd / nd | nd | 0 of 9 |
| NFTLNSYGIS | VIYSDGRRTFHGDSAK | GRAAGTFDS | nd / nd / nd | nd | 0 of 9 |
| GFTLNSYGIS | VICSDGRRTFYGLSVK | GRVAGTFDS | nd / nd / nd | nd | 0 of 9 |
| GFTLNSYGIS | VIYSVGRRTFYGDSVK | GRAAGTRIS | nd / nd / nd | nd | 0 of 9 |
| GFTLNSYGIS | VIYSDERRTFYGASVK | GRACGTFDS | nd / nd / nd | nd | 1 of 9 (3.05) |
| GFTLNSYGIV | VIYSDGRRTFYGDSKK | GRAAGTKDS | nd / nd / nd | nd | 2 of 9 (3.80) |
| GFTLNSCGIS | VICSDGRRTFYGDSVK | GRAAGTFDS | nd / nd / nd | nd | 1 of 9 (4.43) |
| GFTLNSYGIS | VACSDGRRTFYGDSVK | GRAAGTFDS | nd / nd / 3.67 | 3.67 | 2 of 9 (3.09) |
| GQTLNSYGIS | NIYSDGRRTFYGDSVK | LRAAGTFDS | nd / 5.21 / nd | 5.21 | 4 of 9 (4.23) |
| GFTLNSYGGS | VIPSDGRWTFYGDSVK | GRAAGTFDS | nd / 3.79 / nd | 3.79 | 1 of 9 (4.27) |
| GFTLQSYGIS | VAYSDGRRTFYGDSVK | GRTAGTFDS | 0.74 / 0.94 / 0.90 | 0.86 | 6 of 9 (4.46) |
| GFTLNSYGTS | MIYSDGRRTFGGDSVK | GRAAGTFDS | nd / nd / nd | nd | 1 of 9 (4.52) |
| GFTVNSYGIS | VIYSDGRRTFYGDIVD | GRAAGTFDS | 4.02 / 3.88 / 3.06 | 3.66 | 2 of 9 (3.87) |
| GFTLNSYAIS | VIYSDGTRTFYGDSIK | GRAAGTFDS | 3.03 / nd / nd | 3.03 | 0 of 9 |
| GFNLNSYGIS | VIKSDGRRKFYGDSVK | GRAAGTFDS | nd / nd / nd | nd | 0 of 9 |
| GFTLNSYGIS | VIYSDGRRTFYQDSYK | GRAAGTFDT | nd / nd / nd | nd | 0 of 9 |
| GFTLNSYGIS | VIYSDGRATFYGDSVK | GRAAYTFLS | nd / nd / nd | nd | 1 of 9 (2.81) |
| GFTLNSYGIS | VIYSEGRPTFYGDSVK | GRAAGQFDS | 4.67 / nd / nd | 4.67 | 1 of 9 (3.41) |
| GQTLNSYGIS | VIYSDGRRTMYGDSVK | NRAAGTFDS | nd / nd / nd | nd | 0 of 9 |
| GFTLNSYGIS | VIGSDGRRTFYGHSVK | HRAAGTFDS | nd / nd / 3.11 | 3.11 | 0 of 9 |
| FFTLNSYGIS | VIYSDGRRTFYGDWVA | GRAAGTFDS | 4.71 / nd / 4.91 | 4.81 | 3 of 9 (4.49) |
| GFTLNSYGIS | VIYMDGRRTFYGDSVK | GRDAGTRDS | nd / nd / nd | nd | 0 of 9 |
| AFTLKSYGIS | VIYSDGRRTFVGDSVK | GRAAGTFDS | 2.40 / nd / 1.95 | 2.18 | 2 of 9 (2.88) |
| GFTLNSYGIS | VIYSEGRRRFYGDSVK | GRAAGTPDS | nd / 5.09 / 5.34 | 5.21 | 2 of 9 (3.44) |
| GFTLNSYGIS | VIYSDGRATFYGDSVK | SQAAGTFDS | 4.26 / 3.99 / nd | 4.13 | 0 of 9 |
| GFTLNSYGIS | VIYSDCRRTCYGDSVK | GRAARTFDS | nd / nd / nd | nd | 1 of 9 (3.82) |
| GFTLNSYGIS | VIYSDGRRTFYGDSVK | GRAAKRFDV | 0.26 / 0.56 / 0.70 | 0.51 | 0 of 9 |
| GFTLNSYGIS | VIVSDGRRTFYGDSYK | GNAAGTFDS | nd / nd / nd | nd | 0 of 9 |
| GFTLNSYGIS | VLYSQGRRTFYGDSVK | GIAAGTFDS | nd / nd / 3.70 | 3.70 | 4 of 9 (4.88) |
| GFTLNSYGIS | VGYSDGRRTFYGDSVK | GQAAGTFFS | nd / nd / nd | nd | 0 of 9 |
| GFTLNSYGIS | YIYSWGRRTFYGDSVK | SRAAGTFDS | 5.08 / 3.72 / 3.53 | 4.11 | 4 of 9 (4.00) |
| LFTLNSYGIS | VIYEDGRRTFYGDSVK | GRAAGTFYS | nd / nd / nd | nd | 0 of 9 |
| GFTLNSYTIS | VIFSDGRRTFYGDSVY | GRAAGTFDS | 3.68 / 3.60 / nd | 3.64 | 2 of 9 (4.38) |
| GFTLNSYKIS | VIPSDGRRTFYGDSVK | GRHAGTFDS | nd / 3.27 / nd | 3.27 | 0 of 9 |
| GFTLNSYGIS | HIYSDGRRTLYGDSVK | GRAAITFDS | nd / nd / nd | nd | 1 of 9 (3.37) |

6 of these entries, quoted again:

{"CDR-H1": "GFTLNSYTIS", "CDR-H2": "VIFSDGRRTFYGDSVY", "CDR-H3": "GRAAGTFDS", "replicates, log10 nM": "3.68 / 3.60 / nd", "mean log10 Kd (nM)": "3.64", "signal with controls": "2 of 9 (4.38)"}
{"CDR-H1": "GFTLNSYGIS", "CDR-H2": "VGYSDGRRTFYGDSVK", "CDR-H3": "GQAAGTFFS", "replicates, log10 nM": "nd / nd / nd", "mean log10 Kd (nM)": "nd", "signal with controls": "0 of 9"}
{"CDR-H1": "GFTLNSYGIS", "CDR-H2": "VIYSDGRATFYGDSVK", "CDR-H3": "GRAAYTFLS", "replicates, log10 nM": "nd / nd / nd", "mean log10 Kd (nM)": "nd", "signal with controls": "1 of 9 (2.81)"}
{"CDR-H1": "GATLNSYGIS", "CDR-H2": "VIYSDGRRTFYGDSVK", "CDR-H3": "GRAAGTFDS", "replicates, log10 nM": "1.64 / 1.94 / 2.00", "mean log10 Kd (nM)": "1.86", "signal with controls": "8 of 9 (4.31)"}
{"CDR-H1": "GFTLNSYGIS", "CDR-H2": "VACSDGRRTFYGDSVK", "CDR-H3": "GRAAGTFDS", "replicates, log10 nM": "nd / nd / 3.67", "mean log10 Kd (nM)": "3.67", "signal with controls": "2 of 9 (3.09)"}
{"CDR-H1": "GFTLNSYGIS", "CDR-H2": "VIYGPLRRTFYGDSVK", "CDR-H3": "GRAAGTFDS", "replicates, log10 nM": "nd / nd / nd", "mean log10 Kd (nM)": "nd", "signal with controls": "1 of 9 (4.44)"}

As a blank, each scFv also met three strains without target: over library AAYL49, 15% of these pairings were detected, typically at 4.06 and seldom below 2.83. Also given: how often the same scFv was detected with the empty control strains, with their mean in brackets.